Drawing on ChEMBL document CHEMBL5647680 (Cancer Res, 2006), this text covers IC50 for one compound.

The chains behind the UniProt entries cited, without tags or fusion partners.
UniProt P35918, whole entry: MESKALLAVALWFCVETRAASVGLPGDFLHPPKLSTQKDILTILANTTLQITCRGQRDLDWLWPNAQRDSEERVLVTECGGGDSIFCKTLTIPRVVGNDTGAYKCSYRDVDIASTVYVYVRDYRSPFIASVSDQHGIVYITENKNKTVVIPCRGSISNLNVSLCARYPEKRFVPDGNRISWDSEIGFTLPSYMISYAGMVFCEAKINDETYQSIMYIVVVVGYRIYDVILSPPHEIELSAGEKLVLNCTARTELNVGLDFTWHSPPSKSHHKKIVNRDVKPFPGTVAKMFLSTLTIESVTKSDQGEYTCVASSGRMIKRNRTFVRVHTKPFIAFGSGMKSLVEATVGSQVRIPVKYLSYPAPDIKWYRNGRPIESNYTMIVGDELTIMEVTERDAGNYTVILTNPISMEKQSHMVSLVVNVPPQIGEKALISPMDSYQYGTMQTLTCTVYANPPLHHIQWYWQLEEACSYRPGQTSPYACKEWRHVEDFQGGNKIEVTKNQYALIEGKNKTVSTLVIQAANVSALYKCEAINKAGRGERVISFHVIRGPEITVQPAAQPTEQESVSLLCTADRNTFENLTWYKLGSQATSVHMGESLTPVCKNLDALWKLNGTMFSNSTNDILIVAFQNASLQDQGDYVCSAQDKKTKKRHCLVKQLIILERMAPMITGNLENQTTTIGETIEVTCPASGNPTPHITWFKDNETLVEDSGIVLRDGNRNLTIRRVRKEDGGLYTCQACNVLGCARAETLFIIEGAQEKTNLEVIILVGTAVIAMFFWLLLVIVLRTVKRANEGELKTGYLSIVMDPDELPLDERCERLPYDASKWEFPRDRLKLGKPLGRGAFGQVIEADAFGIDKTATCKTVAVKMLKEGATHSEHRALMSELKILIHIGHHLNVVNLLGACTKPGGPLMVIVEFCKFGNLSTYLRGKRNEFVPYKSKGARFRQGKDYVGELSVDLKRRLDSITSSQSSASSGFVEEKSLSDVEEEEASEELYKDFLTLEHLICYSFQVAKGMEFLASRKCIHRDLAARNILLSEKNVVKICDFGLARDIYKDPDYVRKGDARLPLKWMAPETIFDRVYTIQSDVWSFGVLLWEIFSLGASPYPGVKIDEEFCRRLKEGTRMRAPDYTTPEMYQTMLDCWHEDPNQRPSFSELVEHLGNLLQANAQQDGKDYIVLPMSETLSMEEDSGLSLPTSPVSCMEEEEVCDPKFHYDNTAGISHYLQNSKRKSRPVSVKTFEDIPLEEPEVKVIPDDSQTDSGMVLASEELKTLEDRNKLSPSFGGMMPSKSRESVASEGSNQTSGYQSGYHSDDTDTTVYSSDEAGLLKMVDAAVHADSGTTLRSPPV

This experiment addresses Vascular endothelial growth factor receptor 2 (Mus musculus, UniProt P35918). Nature of the experiment: Inhibition of mouse VEGFR2 using gastrin peptide as substrate and ATP concentration two-thirds of Km by HTRF assay. On the technique in general: TR-FRET usually uses a lanthanide donor and a delayed reading to cut background.

On to `CC1(C)CNc2cc(NC(=O)c3cccnc3NCc3ccncc3)ccc21` [MOTESANIB], for which the IC50 (commonly the concentration that gives 50% inhibition) worked out at 6 nM.
